Test results published in PubChem BioAssay (NCI).
Several values for one entry are separate records, joined by “and”; a condition that tells them apart may be missing. Equal values may be shown once. Only a part is listed here, and it is no random draw.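 Treatment: one concentration, 48 hours, 96-well format. Scoring: percent growth, with anything below 10 considered active.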 Activity calls are given as the source filed them.

Experiments:
Assay in all cases: NCI-60 one-dose screen, 48 h (100 = growth as untreated, 0 = no growth, -100 = all killed)
Conditions in all cases: 10 µM unless noted
SK-MEL-2 melanoma = test system: SK-MEL-2 melanoma
EKVX NSCLC = test system: EKVX NSCLC
SN12C renal = test system: SN12C renal
UO-31 renal = test system: UO-31 renal
TK-10 renal = test system: TK-10 renal
ACHN renal = test system: ACHN renal
CAKI-1 renal = test system: CAKI-1 renal
A498 renal = test system: A498 renal
HL-60(TB) leukemia = test system: HL-60(TB) leukemia
CCRF-CEM leukemia = test system: CCRF-CEM leukemia

Measured: growth

ClCCN1c2ccccc2Oc2ccccc21
inactive: SK-MEL-2 melanoma 105% | EKVX NSCLC 98.8% | SN12C renal 98.9% | UO-31 renal 94.4% | TK-10 renal 96.8% | ACHN renal 100% | CAKI-1 renal 94.3% | A498 renal 106% | HL-60(TB) leukemia 114% | CCRF-CEM leukemia 107%

COC(=O)C1(C)COP(=O)(Nc2ccccc2)OC1 (configuration not stated)
inactive: SK-MEL-2 melanoma 96.3% | EKVX NSCLC 102% | SN12C renal 98.4% | UO-31 renal 78.3% | TK-10 renal 98.1% | ACHN renal 105% | CAKI-1 renal 103% | A498 renal 104% | HL-60(TB) leukemia 89.1% | CCRF-CEM leukemia 85.9%

CCCCCCC(C)OP(O)OC(C)CCCCCC (configuration not stated)
inactive: SK-MEL-2 melanoma 107% | EKVX NSCLC 96.8% | SN12C renal 101% | UO-31 renal 77.8% | TK-10 renal 105% | ACHN renal 105% | CAKI-1 renal 89.6% | A498 renal 126% | HL-60(TB) leukemia 103% | CCRF-CEM leukemia 107%

COc1cc([N+](=O)[O-])c([N+](=O)[O-])cc1OC
inactive: SK-MEL-2 melanoma 97.9% and 107% | EKVX NSCLC 100% and 109% | SN12C renal 94.8% and 102% | UO-31 renal 92.4% and 93.8% | TK-10 renal 123% and 109% | ACHN renal 109% and 114% | CAKI-1 renal 105% | A498 renal 89.5% and 101% | HL-60(TB) leukemia 72% and 103% | CCRF-CEM leukemia 92.2% and 104%

N/C(=N\N=C\c1ccc([N+](=O)[O-])o1)N[N+](=O)[O-]
inactive: SK-MEL-2 melanoma 92.9% | EKVX NSCLC 97.1% | SN12C renal 121% | UO-31 renal 91.9% | TK-10 renal 124% | ACHN renal 92% | CAKI-1 renal 102% | A498 renal 70.8% | HL-60(TB) leukemia 93.6% | CCRF-CEM leukemia 86.8%

O=[N+]([O-])c1cc(Cl)cc([N+](=O)[O-])c1O
inactive: SK-MEL-2 melanoma 106% | EKVX NSCLC 110% | SN12C renal 104% | UO-31 renal 94.1% | TK-10 renal 107% | ACHN renal 107% | CAKI-1 renal 110% | A498 renal 103% | HL-60(TB) leukemia 97.3% | CCRF-CEM leukemia 96.4%

COP(=O)(OC)N1CC1c1ccccc1 (configuration not stated)
inactive: SK-MEL-2 melanoma 112% | EKVX NSCLC 105% | SN12C renal 90.1% | UO-31 renal 95% | TK-10 renal 118% | ACHN renal 97.4% | CAKI-1 renal 97.3% | A498 renal 97.9% | HL-60(TB) leukemia 89.3% | CCRF-CEM leukemia 104%

COc1ccc(N)c([N+](=O)[O-])c1[N+](=O)[O-]
inactive: SK-MEL-2 melanoma 116% | EKVX NSCLC 106% | SN12C renal 93.3% | UO-31 renal 92.2% | TK-10 renal 129% | ACHN renal 96.1% | CAKI-1 renal 110% | A498 renal 102% | HL-60(TB) leukemia 51.6% | CCRF-CEM leukemia 101%

CC1(CCC2(C)N=C(NN=C(CCl)CCl)SP2(=O)Nc2ncccn2)N=C(NN=C(CCl)CCl)SP1(=O)Nc1ncccn1 (configuration not stated)
inactive: SK-MEL-2 melanoma 107% [100 µM] | EKVX NSCLC 108% [100 µM] | SN12C renal 101% [100 µM] | UO-31 renal 89% [100 µM] | TK-10 renal 103% [100 µM] | ACHN renal 102% [100 µM] | CAKI-1 renal 93.3% [100 µM] | A498 renal 109% [100 µM] | HL-60(TB) leukemia 103% [100 µM] | CCRF-CEM leukemia 98.7% [100 µM]

O=P1(N(CCCl)CCCl)OCCC2CCCCN21 (configuration not stated)
inactive: SK-MEL-2 melanoma 99.2% | EKVX NSCLC 119% | SN12C renal 99.5% | UO-31 renal 91.3% | TK-10 renal 114% | ACHN renal 103% | CAKI-1 renal 103% | A498 renal 122% | HL-60(TB) leukemia 63.7% | CCRF-CEM leukemia 91.9%

COC(=O)c1ccc(N2CCOP2(=O)Cl)cc1O (configuration not stated)
inactive: SK-MEL-2 melanoma 105% | EKVX NSCLC 101% | SN12C renal 108% | UO-31 renal 89.3% | TK-10 renal 105% | ACHN renal 99.8% | CAKI-1 renal 104% | A498 renal 108% | HL-60(TB) leukemia 89.6% | CCRF-CEM leukemia 87.1%

CCc1cc(O)c([N+](=O)[O-])c(C)c1[N+](=O)[O-]
inactive: SK-MEL-2 melanoma 121% | EKVX NSCLC 106% | SN12C renal 109% | UO-31 renal 83.4% | TK-10 renal 106% | ACHN renal 100% | CAKI-1 renal 93.5% | A498 renal 128% | HL-60(TB) leukemia 69% | CCRF-CEM leukemia 100%

COc1cc([N+](=O)[O-])c(Nc2ccc(Cl)cc2[N+](=O)[O-])c([N+](=O)[O-])c1
inactive: SK-MEL-2 melanoma 87.1% | EKVX NSCLC 59.4% | SN12C renal 43.8% | UO-31 renal 52.3% | TK-10 renal 68.1% | ACHN renal 56.2% | CAKI-1 renal 42.2% | A498 renal 181% | HL-60(TB) leukemia 65.8% | CCRF-CEM leukemia 65.3%

O=[N+]([O-])N1CCCS1(=O)=O
inactive: SK-MEL-2 melanoma 105% | EKVX NSCLC 109% | SN12C renal 106% | UO-31 renal 86.8% | TK-10 renal 90.9% | ACHN renal 108% | CAKI-1 renal 97.4% | A498 renal 94.7% | HL-60(TB) leukemia 109% | CCRF-CEM leukemia 111%

C=NNc1ccc([N+](=O)[O-])cc1[N+](=O)[O-]
inactive: SK-MEL-2 melanoma 104% | EKVX NSCLC 84.9% | SN12C renal 89.3% | UO-31 renal 55.5% | TK-10 renal 97% | ACHN renal 70.7% | CAKI-1 renal 91.3% | A498 renal 86.9% | HL-60(TB) leukemia 83% | CCRF-CEM leukemia 67%

O=[As](O)(c1cccs1)c1cccs1
inactive: SK-MEL-2 melanoma 104% | EKVX NSCLC 101% | SN12C renal 99.3% | UO-31 renal 23% | TK-10 renal 99.6% | ACHN renal 110% | CAKI-1 renal 99.8% | A498 renal 96.6% | HL-60(TB) leukemia 98.1% | CCRF-CEM leukemia 89.5%

O=C1CSC(C(Cl)(Cl)Cl)N1c1ccc(Cl)cc1 (configuration not stated)
inactive: SK-MEL-2 melanoma 114% | EKVX NSCLC 92.8% | SN12C renal 94.7% | UO-31 renal 92.6% | TK-10 renal 107% | ACHN renal 92.6% | CAKI-1 renal 88.8% | A498 renal 101% | HL-60(TB) leukemia 118% | CCRF-CEM leukemia 91.7%

NC(=O)c1[nH]cnc1/N=N\N(CCCl)CCCl
inactive: SK-MEL-2 melanoma 89.6% | EKVX NSCLC 167% | SN12C renal 115% | UO-31 renal 81.7% | TK-10 renal 137% | ACHN renal 128% | CAKI-1 renal 121% | A498 renal 117% | HL-60(TB) leukemia 113% | CCRF-CEM leukemia 98.3%

Cc1c([N+](=O)[O-])cc(C(=O)c2cc([N+](=O)[O-])cc([N+](=O)[O-])c2)cc1[N+](=O)[O-]
inactive: SK-MEL-2 melanoma 98.6% | EKVX NSCLC 99% | SN12C renal 93.6% | UO-31 renal 80% | TK-10 renal 108% | ACHN renal 101% | CAKI-1 renal 104% | A498 renal 94.5% | HL-60(TB) leukemia 104% | CCRF-CEM leukemia 96.6%

CCN(CCCl)c1ccc(CCC(=O)O)cc1
inactive: SK-MEL-2 melanoma 91.8% | EKVX NSCLC 101% | SN12C renal 82% | UO-31 renal 91.2% | TK-10 renal 92% | ACHN renal 106% | CAKI-1 renal 99.9% | A498 renal 93.2% | HL-60(TB) leukemia 80.8% | CCRF-CEM leukemia 102%

CC(Cl)CN(CC(C)Cl)C(=O)c1ccccc1 (configuration not stated)
inactive: SK-MEL-2 melanoma 123% | EKVX NSCLC 112% | SN12C renal 107% | UO-31 renal 81.8% | TK-10 renal 103% | ACHN renal 105% | CAKI-1 renal 103% | A498 renal 96.8% | HL-60(TB) leukemia 66.2% | CCRF-CEM leukemia 45.9%

NCCSP(=O)(O)O
inactive: SK-MEL-2 melanoma 110% | EKVX NSCLC 124% | SN12C renal 97.6% | UO-31 renal 96.8% | TK-10 renal 114% | ACHN renal 110% | CAKI-1 renal 100% | A498 renal 104% | HL-60(TB) leukemia 98.6% | CCRF-CEM leukemia 38.3%

Cc1cccc(Nc2c([N+](=O)[O-])cc([N+](=O)[O-])cc2[N+](=O)[O-])c1
inactive: SK-MEL-2 melanoma 105% | EKVX NSCLC 88.4% | SN12C renal 95.3% | UO-31 renal 67.8% | TK-10 renal 116% | ACHN renal 86.1% | CAKI-1 renal 89.5% | A498 renal 86.1% | HL-60(TB) leukemia 91.7% | CCRF-CEM leukemia 72.6%

O=[As](O)(c1ccccc1Br)c1ccccc1Br
inactive: SK-MEL-2 melanoma 104% | EKVX NSCLC 108% | SN12C renal 95.1% | UO-31 renal 80.7% | TK-10 renal 107% | ACHN renal 97.3% | CAKI-1 renal 102% | A498 renal 107% | HL-60(TB) leukemia 65.4% | CCRF-CEM leukemia 99.4%

O=[N+]([O-])c1ccc(CCCCCCc2ccc([N+](=O)[O-])cc2[N+](=O)[O-])c([N+](=O)[O-])c1
inactive: SK-MEL-2 melanoma 103% | EKVX NSCLC 88.4% | SN12C renal 91.8% | UO-31 renal 56.4% | TK-10 renal 119% | ACHN renal 103% | CAKI-1 renal 83.4% | A498 renal 69.7% | CCRF-CEM leukemia 85.3%

ClCCNCc1ccccc1
inactive: SK-MEL-2 melanoma 120% | EKVX NSCLC 104% | SN12C renal 114% | UO-31 renal 99.3% | TK-10 renal 115% | ACHN renal 109% | CAKI-1 renal 103% | A498 renal 111% | HL-60(TB) leukemia 98.9% | CCRF-CEM leukemia 94.3%

O=[N+]([O-])c1ccc([N+](=O)[O-])cc1
inactive: SK-MEL-2 melanoma 124% | EKVX NSCLC 110% | SN12C renal 100% | UO-31 renal 92.1% | TK-10 renal 116% | ACHN renal 118% | CAKI-1 renal 94.5% | A498 renal 81.3% | CCRF-CEM leukemia 126%

O=C(O)c1ccccc1[As](=O)(O)O
inactive: SK-MEL-2 melanoma 115% | EKVX NSCLC 87.8% | SN12C renal 96.7% | UO-31 renal 117% | TK-10 renal 91.5% | ACHN renal 104% | CAKI-1 renal 56.8% | A498 renal 101% | HL-60(TB) leukemia 123% | CCRF-CEM leukemia 94.9%

COC(=O)C(=[N+]=[N-])C(=O)c1cc([N+](=O)[O-])cc([N+](=O)[O-])c1
inactive: SK-MEL-2 melanoma 111% | EKVX NSCLC 103% | SN12C renal 118% | UO-31 renal 111% | TK-10 renal 108% | ACHN renal 117% | CAKI-1 renal 101% | A498 renal 97.9% | CCRF-CEM leukemia 101%
